Measurements taken from the NIST ThermoML archive (doi:10.1016/j.jct.2015.03.021).

How the values were obtained:
[1] = 101.33 kPa, Liquid, Vibrating tube method
[2] = excess molar enthalpy (molar enthalpy of mixing); xn = mol fraction of the nth substance listed; details: 100 kPa, Liquid, Calvet calorimetry

CCCCOCCCC [dibutyl ether]
[1]
Details	mass density [kg/m3]
298.15 K	764.11
308.15 K	755.91

CCCCOCCCC [dibutyl ether] + CCCCCO
[2]
Details	excess molar enthalpy [kcal/mol]
298.15 K, x1 = 0.0625	0.0339
298.15 K, x1 = 0.1224	0.0652
298.15 K, x1 = 0.1662	0.0872
298.15 K, x1 = 0.2329	0.113
298.15 K, x1 = 0.2901	0.142
298.15 K, x1 = 0.3528	0.163
298.15 K, x1 = 0.4129	0.179
298.15 K, x1 = 0.4763	0.195
298.15 K, x1 = 0.5409	0.205
298.15 K, x1 = 0.6036	0.208
298.15 K, x1 = 0.6587	0.207
298.15 K, x1 = 0.7219	0.202
298.15 K, x1 = 0.7756	0.187
298.15 K, x1 = 0.8253	0.17
298.15 K, x1 = 0.9031	0.123
298.15 K, x1 = 0.9273	0.101
308.15 K, x1 = 0.0559	0.0347
308.15 K, x1 = 0.1172	0.0707
308.15 K, x1 = 0.1759	0.103
308.15 K, x1 = 0.228	0.129
308.15 K, x1 = 0.2926	0.157
308.15 K, x1 = 0.3469	0.178
308.15 K, x1 = 0.3922	0.19
308.15 K, x1 = 0.4624	0.211
308.15 K, x1 = 0.5372	0.224
308.15 K, x1 = 0.5914	0.228
308.15 K, x1 = 0.6516	0.23
308.15 K, x1 = 0.7132	0.224
308.15 K, x1 = 0.7681	0.208
308.15 K, x1 = 0.8942	0.15
308.15 K, x1 = 0.9494	0.0837
